Data on 60 compounds can be found in PubChem BioAssay AID463195 (Sanford-Burnham Center for Chemical Genomics, 2010).

Molecules are shown by their SMILES. This is a selection; strong and weak results do not stand in their true shares. Some salts and complexes are drawn in separate pieces, as the source files them; their charges need not balance. Calls of active or inactive are those of the source.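 Rule for the calls: active = inhibition of 40% or more at the single tested concentration; inactive = the rest.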

The assay can be described thus: wild-type TIM10 yeast growth inhibition – luminescence, uHTS, counter-screen for tim10-1 yeast inhibitor project, primary screen (AID 463195).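 Note: wild-type TIM10 isogenic control strain grown at permissive 25 °C; 0% = DMSO yeast wells and 100% = minimal medium wells without yeast.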 To be noted: S. cerevisiae TIM10 strain growth, BacTiter-Glo luminescence, 24 h; at 10 µM; stronger effect = higher value.
A word on the inhibition: it is the drop in the measured response relative to a control, in per cent. Take `O=[N+]([O-])c1cc([N+](=O)[O-])c(Nc2nnnn2CCO)c([N+](=O)[O-])c1`: the inhibition was inactive: 8.9%.

Take `CC1=C2N=C(C=C3N=C(C(C)=C4[N-][C@@](C)([C@@H]5N=C1[C@](C)(CCC(=O)NC[C@@H](C)OP(=O)([O-])O[C@H]1[C@@H](O)[C@@H](n6cnc7cc(C)c(C)cc76)O[C@@H]1CO)[C@H]5CC(N)=O)[C@@](C)(CC(N)=O)[C@@H]4CCC(N)=O)[C@@](C)(CC(N)=O)[C@@H]3CCC(N)=O)C(C)(C)[C@@H]2CCC(N)=O.[C-]#N.[Co+3]`: the inhibition is inactive: 13.9%.

As for `CCOC(=O)C(CC)C1=NC(C)(C)Cc2ccccc21.O=[N+]([O-])c1cc([N+](=O)[O-])c(O)c([N+](=O)[O-])c1` (stereo not given), the inhibition is inactive: -12.8%.

For `CP(=O)(Nc1ccc(SC(F)(F)F)cc1)Oc1ccccc1` (stereo not given), the inhibition was inactive: 2.33%.

For the compound `CCCOc1ccc(NP(C)(=O)Oc2ccc(Cl)cc2)cc1` (stereo not given), the inhibition was inactive: 23.7%.

Turning to `CN1CCCCC1COC(=O)C1(O)c2ccccc2CCc2ccccc21` (stereo not given), the inhibition is inactive: -0.405%.

Regarding `COc1ccccc1OP(C)(=O)Nc1c(C)cccc1C` (stereo not given), the inhibition was inactive: 4.68%.

As to `O=C(O)c1cccc(Nc2c([N+](=O)[O-])cc([N+](=O)[O-])cc2[N+](=O)[O-])c1`, the inhibition was inactive: -9.31%.

On to `CC1=NCCc2c1[nH]c1ccccc21.O=[N+]([O-])c1cc([N+](=O)[O-])c(O)c([N+](=O)[O-])c1`, for which the inhibition is inactive: -4.13%.

Take `Cc1cc(C)cc(OP(C)(=O)Nc2ccc(C)cc2C)c1` (stereo not given): the inhibition was inactive: -20.7%.

In the case of `CCOC(=O)c1ccc(NP(C)(=O)Oc2cc(C)cc(C)c2)cc1` (stereo not given), the inhibition is inactive: 0.297%.

Turning to `COc1ccccc1OP(C)(=O)Nc1cccc(Br)c1` (stereo not given), the inhibition is inactive: 4.59%.

Turning to `CP(=O)(Nc1cccc(Br)c1)Oc1ccccc1` (stereo not given), the inhibition was inactive: 5.98%.

Regarding `Cc1cc(C)cc(OP(C)(=O)Nc2ccccn2)c1` (stereo not given), the inhibition was inactive: 16.6%.

In the case of `Cc1ccc(C)c(NP(C)(=O)Oc2ccccc2)c1` (stereo not given), the inhibition was inactive: -2.94%.

For the compound `CC(C)c1ccc(OP(C)(=O)Nc2ccc(SC(F)(F)F)cc2)cc1` (stereo not given), the inhibition was inactive: -8.17%.

With `CP(=O)(Nc1ccccc1F)Oc1ccccc1` (stereo not given), the inhibition is inactive: 14.5%.

Turning to `COc1ccc2c(c1O)-c1c(O)c(OC)cc3c1[C@H](C2)[N+](C)(C)CC3.O=[N+]([O-])c1cc([N+](=O)[O-])c([O-])c([N+](=O)[O-])c1[O-]`, the inhibition was inactive: 5.32%.

On to `O=C(OCCN1CCN(CCOCc2ccccc2)CC1)C(O)(c1ccccc1)c1ccccc1`, for which the inhibition is inactive: 4.93%.

Consider `O=C(OC1CN2CCC1CC2)c1ccc([N+](=O)[O-])cc1` (stereo not given), for which the inhibition is inactive: -206%.

In the case of `COc1ccc(OP(C)(=O)Nc2ccc(SC(F)(F)F)cc2)cc1` (stereo not given), the inhibition is inactive: 28.6%.

On to `CCOC(=O)c1ccc(NP(C)(=O)Oc2ccc(F)cc2)cc1` (stereo not given), for which the inhibition was inactive: 7.23%.

With `CCCCCOc1ccc(NP(C)(=O)Oc2ccc(Cl)cc2Cl)cc1` (stereo not given), the inhibition is inactive: 18.5%.

Take `O=[N+]([O-])c1cc([N+](=O)[O-])c(OC2CCCCC2O)c([N+](=O)[O-])c1` (stereo not given): the inhibition was inactive: 3.7%.

For `CP(=O)(Nc1ccccc1)Oc1ccc(F)cc1` (stereo not given), the inhibition was inactive: -4.69%.

On to `CCN(CC)CCCOC(=O)C(O)(c1ccccc1)C1CCCCC1` (stereo not given), for which the inhibition is inactive: -3.38%.

Consider `COc1ccc(NP(C)(=O)Oc2ccccc2OC)cc1` (stereo not given), for which the inhibition is inactive: 18.6%.

On to `CN(C)CCOC(=O)C(O)(c1ccccc1)C1CCCCC1` (stereo not given), for which the inhibition is inactive: -21.6%.

Consider `COc1ccc(OP(C)(=O)Nc2cccc(Br)c2)cc1` (stereo not given), for which the inhibition is inactive: -0.604%.

In the case of `O=[N+]([O-])c1cc([N+](=O)[O-])c(NCC2CCS(=O)(=O)C2)c([N+](=O)[O-])c1` (stereo not given), the inhibition was inactive: -2.29%.

In the case of `CCOP(C)(=S)SCC(=O)NC(C)(CC)C(=O)O` (stereo not given), the inhibition was inactive: -14.3%.

Regarding `CP(=O)(Nc1ccc(SC(F)(F)F)cc1)Oc1ccc(F)cc1` (stereo not given), the inhibition was inactive: 14.1%.

With `Cc1ccccc1NP(C)(=O)Nc1ccccc1C`, the inhibition is inactive: -8.21%.

Consider `CP(=O)(Nc1ccc2c(c1)OCCO2)Oc1ccccc1` (stereo not given), for which the inhibition was inactive: -2.84%.

For `CP(=O)(Oc1ccccc1)N1CCOC1=O` (stereo not given), the inhibition is inactive: 7.31%.

`CCc1ccc(OP(C)(=O)Nc2cccnc2)cc1` (stereo not given): the inhibition was inactive: -2.62%.

For the compound `COc1ccccc1OP(C)(=O)Nc1c(C)n(C)n(-c2ccccc2)c1=O` (stereo not given), the inhibition is inactive: -16.9%.

Turning to `O=C(OCCCN1CCCC1)C(O)(c1ccccc1)C1CCCCC1` (stereo not given), the inhibition was inactive: 2.57%.

With `CCN(CC)CC(O)COC(=O)C(O)(c1ccccc1)C1CCCCC1` (stereo not given), the inhibition is inactive: 7.29%.

For `COc1ccc(OP(C)(=O)Nc2ccc(Br)cc2)cc1` (stereo not given), the inhibition was inactive: 0.772%.

On to `CN(C)C(=O)c1c([N+](=O)[O-])cc([N+](=O)[O-])cc1[N+](=O)[O-]`, for which the inhibition is inactive: 15.8%.

On to `CP(=O)(Nc1ccc(Cl)cc1)Oc1ccc(F)cc1` (stereo not given), for which the inhibition is inactive: 15.6%.

`CC(C)(C)c1ccc(OP(C)(=O)O)cc1`: the inhibition was inactive: 8.45%.

Consider `COc1ccccc1OP(C)(=O)Nc1ccccc1Br` (stereo not given), for which the inhibition is inactive: -1.99%.

As to `CP(=O)(OC12CC3CC(CC(C3)C1)C2)OC12CC3CC(CC(C3)C1)C2`, the inhibition was inactive: 33.2%.

Turning to `CCOC(=O)c1ccc(NP(C)(=O)Oc2ccc(Cl)cc2)cc1` (stereo not given), the inhibition was inactive: 6.52%.

Take `Nc1ccc2c(ccc3cccnc32)n1.O=[N+]([O-])c1cc([N+](=O)[O-])c(O)c([N+](=O)[O-])c1`: the inhibition was inactive: 21.6%.

For the compound `COc1ccc(OP(C)(=O)Nc2ccccc2Br)cc1` (stereo not given), the inhibition was inactive: 5.65%.

As to `COc1ccccc1OP(C)(=O)Nc1ccc(C)c(C)c1` (stereo not given), the inhibition is inactive: -3.6%.

In the case of `Cc1cc(C)cc(OP(C)(=O)Nc2cccc(C(F)(F)F)c2)c1` (stereo not given), the inhibition is inactive: 25.9%.

In the case of `CP(=O)(OCCOc1ccccc1)OCCOc1ccccc1`, the inhibition is inactive: -2.75%.

Consider `CP(=O)(Nc1ccc(Cl)cc1Cl)Oc1ccccc1` (stereo not given), for which the inhibition is inactive: -7.44%.

`Cc1nc2ccc3ccccc3c2o1.O=[N+]([O-])c1cc([N+](=O)[O-])c(O)c([N+](=O)[O-])c1`: the inhibition is inactive: 28.3%.

On to `CN(C)CCOC(=O)C(O)(c1ccccc1)C1CCCC1` (stereo not given), for which the inhibition is inactive: 5.47%.

With `COc1ccccc1OP(C)(=O)Nc1ccc(Br)cc1` (stereo not given), the inhibition was inactive: -6.15%.

For the compound `CCc1ccc(OP(C)(=O)O)cc1`, the inhibition is inactive: 2.37%.

On to `CP(=O)(Nc1ccccn1)Oc1ccccc1` (stereo not given), for which the inhibition is inactive: 8.5%.

On to `COc1ccccc1OP(C)(=O)Nc1ccc(C)cc1C` (stereo not given), for which the inhibition was inactive: -8.26%.

As to `O=[N+]([O-])c1cc([N+](=O)[O-])c(Nc2ccccn2)c([N+](=O)[O-])c1`, the inhibition is active: 55%.

For `Cc1c(NP(C)(=O)Oc2ccc(C(C)C)cc2)c(=O)n(-c2ccccc2)n1C` (stereo not given), the inhibition was inactive: 5.45%.
